Here are results for 1 substance from patent US7070778B2, “Therapeutical combination against cancer” (Laboratoire Goemar SA, priority 2003, dated 2006).

The test system of this assay is BT-474 human breast carcinoma. Briefly: Effect on the tumor growth: BT-474 human breast carcinoma xenograft in nude mice. The assay is classed as in vivo. The following applies: for Average daily weight of the tumor: Group 2: Herceptin 0.5 mg/kg i.p. twice a week during 3 weeks. On the procedure:
Female nude mice (nulnu) between 5 and 6 weeks of age weighing approximately 20 g were obtained from Harlan, Inc. (Madison, Wis.). The BT-474 human breast carcinoma cell line was obtained from the American Type Culture Collection (ATCC). BT-474 was established by E. Lasfargues and W. G. Coutinho from a solid carcinoma of the breast obtained from a patient (2). Twenty-one-day release 17β-estradiol pellets at 0.25 mg (Innovative Research of America) were implanted subcutaneously into each mouse. The following day, animals were implanted s.c. by trocar with fragments of human tumor carcinomas harvested from s.c. growing tumors in nude mice hosts. When the tumors were approximately 40 mg in size (24 days following inoculation), the animals were pair-matched into treatment and control groups. All of the groups contained 9 mice. All of the animals were ear-tagged and followed individually throughout the experiment.
The mice of each group were administered intra peritoneally with 2 ml of the following composition:
Group 1: (control) sterile H2O, 5 times a day
Mice were weighed twice weekly, and tumor measurements were obtained using calipers twice weekly, starting on Day 1. These tumor measurements were converted to mg tumor weight by the standard formula, (W^2×L)/2 (2). The experiment was terminated when the control group tumor size reached an average of 500 mg. Upon termination (Day 46), the mice were weighed, sacrificed and their tumors were excised. The tumors were weighed, and the mean tumor weight per group was calculated.
With this agent, the final weight of a given tumor was subtracted from its own weight at the start of treatment on Day 1. This difference was divided by the initial tumor weight to give the % regression. A mean % tumor regression was calculated from data from mice in a group that experienced tumor regressions.

For the substance “Herceptin: monoclonal antibody manufactured by Genentech”, the “effect on the growth of the tumor (in words)” value (Herceptin 0.5 mg/kg) was “allows a limitation of the growth of the tumor”. In addition, the “Average daily weight of the tumor” value (day 1) was 40.3 mg; the “Average daily weight of the tumor” value (day 5) came to 60.0 mg; the “Average daily weight of the tumor” value (day 9) is given as 89.9 mg; the “Average daily weight of the tumor” value (day 12) is on record as 110.9 mg; the “Average daily weight of the tumor” value (day 16) amounted to 137.9 mg; the “Average daily weight of the tumor” value (day 19) stood at 204.6 mg. For the same substance, the “Average daily weight of the tumor” value (day 23) was found to be 231.3 mg; the “Average daily weight of the tumor” value (day 26) turned out to be 272.8 mg; the “Average daily weight of the tumor” value (day 29) was found to be 304.7 mg; the “Average daily weight of the tumor” value (day 32) is on record as 346.0 mg; the “Average daily weight of the tumor” value (day 36) is on record as 476.0 mg; the “Average daily weight of the tumor” value (day 39) amounted to 489.8 mg. The “Average daily weight of the tumor” value reads like this: (day 43) 551.1 mg; (day 46) 727.9 mg.
